# Laboratory results as given in patent US20110182831A1 (priority 2010, published 2011).
# Where two headings read alike, the source gives them in different places.
# Legend:
# clinical = settings: male, human, in vivo, inhaled or intranasal
# [1] = not given; remark: listed apart in the source
# [2] = cited from earlier work
# [3] = not given; remark: listed apart in the source
# [4] = not given; remark: listed apart in the source
# [5] = room temperature, duration of stability study
# [6] = different combinations of device and formulation
structure (smiles),measurement,setting,value
"CN1CCCC1c1cccnc1 (centres unmarked) [nicotine, S-3-(1-methyl-2-pyrrolidinyl)pyridine]",subject-reported craving immediately following study dosing,nearly all subjects,acute reduction in craving or an absence of craving
same,mean craving score,"scale of 0 to 10, all dose levels combined, within 5 minutes post-dosing, pre-dose 4.9",1.4
same,Tmax,clinical,1 min
same,AUC(0-t),clinical; 0.2 mg,5.32 ng·h/mL
same,Cmax,clinical; 0.2 mg,11.5 ng/mL
same,Tmax,clinical; 0.2 mg,1 min
same,half-life,clinical; 0.2 mg,136 min
same,AUC(0-t),clinical; 0.4 mg,8.87 ng·h/mL
same,Cmax,clinical; 0.4 mg,18 ng/mL
same,Tmax,clinical; 0.4 mg,1 min
same,half-life,clinical; 0.4 mg,114 min
same,AUC(0-t),clinical; 0.7 mg,10.4 ng·h/mL
same,Cmax,clinical; 0.7 mg,22.9 ng/mL
same,Tmax,clinical; 0.7 mg,1 min
same,half-life,clinical; 0.7 mg,97 min
same,impact on pH,"[1]; 28 days, throughout pH range 3.0-7.0",no impact on pH
same,nicotine concentration on storage,[1]; higher pH values,decreased over time
same,nicotine concentration on storage,"[1]; lower pH's of 3.0 and 4.0, buffered, screening study pH 3.0-7.0",unaltered
same,peak plasma concentrations,"[2]; cigarette smoking, believed typical",25 to 40 ng/mL
same,time to peak plasma concentration,[2]; cigarette smoking,5 to 7 min
same,nicotine the smoker typically absorbs per cigarette,[2]; cigarettes contain 6 to 11 mg of nicotine,1 to 3 mg
same,GSD,[3]; [6],1.3
same,MMAD,[3]; [6],2.5-2.7 μm
same,GSD,[3]; either dose reduction strategy,1.3
same,fine particle fraction,[3]; either dose reduction strategy,80%
same,typical MMAD,[3]; either dose reduction strategy,2.6 μm
same,typical fine particle fraction,[3]; fraction of particles under 3.5 μm,about 80%
same,safety and tolerability conclusion,[4]; inhaled nicotine via the AERx Essence,safe and tolerable
same,severity of AEs,"[4]; most AEs, self-resolved without medication",mild or moderate
same,serious AEs,[4]; single-bolus inhaled doses,No serious AEs were observed
same,changes in safety measures following dosing,"[4]; vital signs, ECG, spirometry, labs",No clinically significant changes
same,stability of aqueous formulation,[5],stable at room temperature for a period of at least a month
